Test results: patent US11834458B2, “Anti-cancer nuclear hormone receptor-targeting compounds” (Nuvation Bio Inc., priority 2021, dated 2023)

Protein sequences, listed by entry. Tags and fused reporters are not part of them.
UniProt P10275, whole entry: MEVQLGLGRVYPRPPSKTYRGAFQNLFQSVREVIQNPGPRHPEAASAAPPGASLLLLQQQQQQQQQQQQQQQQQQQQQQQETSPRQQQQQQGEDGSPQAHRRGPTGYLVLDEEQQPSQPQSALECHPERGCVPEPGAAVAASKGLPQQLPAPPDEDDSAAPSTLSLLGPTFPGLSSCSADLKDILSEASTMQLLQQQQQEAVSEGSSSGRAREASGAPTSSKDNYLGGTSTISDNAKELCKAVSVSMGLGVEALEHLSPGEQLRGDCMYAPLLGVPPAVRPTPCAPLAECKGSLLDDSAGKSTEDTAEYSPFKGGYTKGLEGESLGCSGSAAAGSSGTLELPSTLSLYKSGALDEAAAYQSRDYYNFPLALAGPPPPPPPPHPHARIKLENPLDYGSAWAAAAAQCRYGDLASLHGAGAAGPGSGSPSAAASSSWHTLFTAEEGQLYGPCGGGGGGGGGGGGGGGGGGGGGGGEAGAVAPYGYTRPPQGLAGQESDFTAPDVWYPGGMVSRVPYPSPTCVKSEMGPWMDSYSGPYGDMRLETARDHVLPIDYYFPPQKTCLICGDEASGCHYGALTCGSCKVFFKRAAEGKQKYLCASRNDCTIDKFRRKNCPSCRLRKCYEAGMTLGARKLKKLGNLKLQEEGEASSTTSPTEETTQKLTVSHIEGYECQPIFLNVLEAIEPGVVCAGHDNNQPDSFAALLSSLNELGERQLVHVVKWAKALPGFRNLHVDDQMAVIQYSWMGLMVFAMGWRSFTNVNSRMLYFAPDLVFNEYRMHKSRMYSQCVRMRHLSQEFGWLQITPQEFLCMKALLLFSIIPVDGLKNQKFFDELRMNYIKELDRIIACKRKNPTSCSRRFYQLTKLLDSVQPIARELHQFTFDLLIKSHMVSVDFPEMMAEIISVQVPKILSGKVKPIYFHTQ
UniProt P10275, whole entry T878A: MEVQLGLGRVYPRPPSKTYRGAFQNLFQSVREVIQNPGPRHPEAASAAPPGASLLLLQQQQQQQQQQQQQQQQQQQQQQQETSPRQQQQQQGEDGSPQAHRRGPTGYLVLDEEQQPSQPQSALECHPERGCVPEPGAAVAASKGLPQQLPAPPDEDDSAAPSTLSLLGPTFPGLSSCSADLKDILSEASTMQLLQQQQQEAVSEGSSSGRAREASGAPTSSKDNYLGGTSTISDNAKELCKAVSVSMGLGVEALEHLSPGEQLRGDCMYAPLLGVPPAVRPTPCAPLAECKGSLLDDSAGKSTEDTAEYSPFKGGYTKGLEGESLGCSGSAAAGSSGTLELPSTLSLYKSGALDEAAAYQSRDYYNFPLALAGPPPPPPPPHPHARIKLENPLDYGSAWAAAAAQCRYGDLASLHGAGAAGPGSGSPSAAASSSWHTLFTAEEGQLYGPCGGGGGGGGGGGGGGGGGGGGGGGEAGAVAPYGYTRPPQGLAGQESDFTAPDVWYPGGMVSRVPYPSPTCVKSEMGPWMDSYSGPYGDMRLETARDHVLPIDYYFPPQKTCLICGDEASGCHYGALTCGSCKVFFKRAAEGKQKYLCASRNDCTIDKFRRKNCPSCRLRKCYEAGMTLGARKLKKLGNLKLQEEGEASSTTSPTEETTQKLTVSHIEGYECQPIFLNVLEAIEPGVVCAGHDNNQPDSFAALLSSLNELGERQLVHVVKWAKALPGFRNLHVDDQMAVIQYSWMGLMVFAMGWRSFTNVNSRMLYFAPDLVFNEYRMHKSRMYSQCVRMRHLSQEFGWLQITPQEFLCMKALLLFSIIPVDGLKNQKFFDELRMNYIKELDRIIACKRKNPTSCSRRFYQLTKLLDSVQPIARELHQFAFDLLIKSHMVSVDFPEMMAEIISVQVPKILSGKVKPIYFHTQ

What was measured:
22Rv1 cells = experiment: Cell viability assay, 22Rv1; conditions: read-out: 22RV1 (GI50), 6 days, CellTiterGlo, tested form: formate
Method: (§1) Cell viability assay: LNCap, 22Rv1, MCF7, MDAMB361, T47D, and IEC6 cells are seeded at a density of 500-2000 cells/well in 96 well plates, and a ‘T0’ (timepoint 0) was included along with the assay plate. The plates are then incubated at 37° C., 5% CO2 in a cell culture incubator overnight. On the next day, the ‘T0’ plate was assayed using CellTiterGlo (Promega, Inc) according to the manufacturer's instructions. The appropriate compounds are diluted in DMSO and added to the assay plate (final DMSO concentration of 0.1-0.2%) on the next day. The assay plates are incubated for 6 days at 37° C., 5% CO2. After the incubation period, the plates are assayed using CellTiterGlo (Promega, Inc) according to the manufacturer's instructions and luminescence was read on the EnVision plate reader. Inhibition of the tested compounds was determined by the following formula: Inhibition rate (%)=(1−(RLU compound−RLU day0)/(RLU control−RLU day0))*100%. GraphPadPrism was used to analyze the data and determine GI50/IC50 values.

[1] = biological target: full-length androgen receptor (Homo sapiens (Human), UniProt P10275); experiment: AR antagonism assay; type: cell-based; conditions: read-out: AR antagonism; HEK293 cells stably expressing full-length androgen receptor, testosterone 1 nM, 20 h; tested form: formate
Method: AR antagonism assay: To evaluate AR antagonist activity, test compound was added to the assay plate (top dose 10 μM, 3 fold serial dilution, 10 point dose response). HEK293 cells stably expressing the full-length androgen receptor were seeded at a density of 20,000 cells/well in the assay plate. The assay plate was then incubated at room temperature for 10 minutes and at 37° C., 5% CO2 for 20 minutes. Testosterone was added to the assay plate at 1 nM final concentration and the assay plate incubated at 37° C., 5% CO2 for 20 h. After the incubation period, Steady-glo was added to the assay plate and mixed at room temperature for 20 minutes on an orbital shaker, before reading out on the EnVision plate reader.

AR = AR (Homo sapiens (Human), UniProt P10275, T878A); experiment: AR binding assay; conditions: read-out: AR binding; cytosol from LnCaP cells, 3H-R1881 1 nM, 4° C. 24 hrs; tested form: formate
Method: AR binding assay: To assess AR binding, test compound (top dose 10 μM, 4 fold serial dilution, 8 point dose response) and control (progesterone) were transferred to the assay plate. Cytosol from LnCaP cells was added to the plate, followed by addition of radiolabeled ^3H-R1881 at a final concentration of 1 nM. The plate was sealed, and the reaction was incubated at 300 rpm at 4° C. for 24 hrs. Radioligand absorption buffer (10 mM Tris-HCl, pH 7.4; 1.5 mM EDTA; 1 mM DTT; 0.25% charcoal; 0.0025% dextran) was then added to the plate, mixed, and incubated at 4° C. for 15 minutes. The plate was then centrifuged at 3000 rpm for 30 minutes at 4° C. The supernatant was transferred to the scint-tube and Tri-carb was used for scintillation counting. The data was analyzed using GraphPadPrism v5.0 and binding IC50 was determined as the concentration where 50% inhibition of radioligand binding was observed.

IEC6 cells = experiment: Cell viability assay, IEC6; conditions: read-out: IEC-6 (IC50); IEC-6 cells, 6 days, CellTiterGlo; tested form: formate
Method: as §1

LNCap cells = experiment: Cell viability assay, LNCap; conditions: read-out: LNCap (GI50), 6 days, CellTiterGlo, tested form: formate
Method: as §1

CC[C@@]1(O)C(=O)OCc2c1cc1n(c2=O)Cc2cc3c(CN(C)C)c(OC(=O)N4CCN(CCCCCCNC(=O)c5ccc(N6C(=S)N(c7ccc(C#N)c(C(F)(F)F)c7)C(=O)C6(C)C)cc5F)CC4)ccc3nc2-1
10 to 500 nM: GI50 (22Rv1 cells) | IC50 [1] | IC50 (AR) | IC50 (IEC6 cells) | GI50 (LNCap cells)
